Results reported in patent publication US20200003759A1, “METHODS FOR IDENTIFYING METAP-2 MODULATORS” (Zafgen, Inc., priority 2017, published 2020).
Read-outs that look alike come from different tables or passages of the source.

Protein sequences, listed by entry. Tags and fused reporters are not part of them. Lines headed by an entry give the natural chain unless they say otherwise; changes in a name come on top.
UniProt P50579: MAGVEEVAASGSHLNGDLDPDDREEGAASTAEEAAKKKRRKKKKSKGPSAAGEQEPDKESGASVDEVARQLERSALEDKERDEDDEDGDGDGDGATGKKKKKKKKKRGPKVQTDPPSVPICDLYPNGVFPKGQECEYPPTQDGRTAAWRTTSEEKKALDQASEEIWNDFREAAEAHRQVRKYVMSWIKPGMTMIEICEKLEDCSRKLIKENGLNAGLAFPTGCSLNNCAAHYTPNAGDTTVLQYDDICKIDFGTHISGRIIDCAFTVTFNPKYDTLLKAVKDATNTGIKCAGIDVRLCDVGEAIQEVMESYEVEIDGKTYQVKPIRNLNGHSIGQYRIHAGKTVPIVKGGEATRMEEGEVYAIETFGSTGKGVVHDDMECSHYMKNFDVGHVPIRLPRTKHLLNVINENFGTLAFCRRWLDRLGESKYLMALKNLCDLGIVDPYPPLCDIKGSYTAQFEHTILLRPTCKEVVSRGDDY

Tests used:
[1] = tested on: HUVECs; test: Cell-associated drug concentration in HUVECs (LC-MS/MS); format: in vitro ADME, human; details: 10, 30, or 100 nM for 1 hour, then washed (FIG. 8A)
Method: For LC-MS/MS experiments, cells were plated at 3×10^4 cells/mL on tissue culture-treated T175 flasks at 35 mL/flask in triplicate and allowed to equilibrate overnight in a CO2 incubator. On the day of the experiment, cell culture medium was removed, and fresh medium was added, along with drug or vehicle. Target compounds and beloranib were diluted in DMSO to yield stock concentrations of 10 μM. Subsequent dilutions were made in EGM-2 culture medium to yield a final DMSO concentration of 0.1% for cell incubations.
Cell lysates were stored at −80° C.
Thus, similar and maximal binding to MetAP2 protein occurred with the 10 nM concentration of both Compound A and beloranib and subsequent MetAP2 target engagement studies employed a 10 nM concentration of both drugs.

[2] = tested on: HUVEC; test: Inhibition of HUVEC proliferation as a function of drug exposure time (washout assay)
[3] = tested on: thrombomodulin (TM)
Method: For LC-MS/MS sample preparation, cell culture media was removed, cells were washed with 10 mL of Dulbecco's phosphate-buffered saline (DPBS), and 500 μL of T-PER lysis buffer was added. Cell lysates were stored at −80° C. […] For the 4- and 8-hour incubations, cells were maintained by standard culture for the remainder of the 72-hour incubation period. Cell cycle protein levels were assessed using enzyme-linked immunosorbent assays.
HUVEC cells were exposed to compounds at concentrations of 1 nM, 3 nM, 10 nM, and 20 nM. […] The protein assays performed included measurements of total p21, thrombomodulin, total p53, PAI-1, and von Willibrand factor (vWF). All values obtained were normalized against protein concentration.

[4] = molecular target: T1, MetAP2 (Homo sapiens, UniProt P50579); details: HepG2 cells; 2 hours exposure, washed out (FIG. 7A)
[5] = molecular target: T1, MetAP2; details: HUVECs, 10 nM, 2 hours exposure, washed, 72-hour culture (FIG. 6C, 7B)
[6] = molecular target: T1, MetAP2; details: HUVECs; 10 nM, 2 hours exposure, washed, 72-hour culture (FIG. 6D)

CO[C@@H]1[C@H](OC(=O)/C=C/c2ccc(OCCN(C)C)cc2)CC[C@]2(CO2)[C@H]1[C@@]1(C)O[C@@H]1CC=C(C)C [Beloranib, beloranib]
cell-associated concentration, fold higher than Compound A [1]: more than 10 fold | % inhibition 6XIC90 4 h exposure ([2]; 6XIC90, 4 h exposure): 45% | % inhibition 6XIC90 24 h exposure ([2]; 6XIC90, 24 h exposure): 67% | % inhibition 20XIC90 4 h exposure ([2]; 20XIC90, 4 h exposure): 64% | % inhibition 20XIC90 24 h exposure ([2]; 20XIC90, 24 h exposure): 72% | TM protein level ([3]; 72 hours of incubation, all concentrations (1, 3, 10, 20 nM)): reduced TM levels | TM protein level ([3]; short 4- or 8-hour incubations, 10 and 20 nM): reduced TM protein levels

CO[C@@H]1[C@H](OC(=O)N2CC(CCN3CCOCC3)C2)CC[C@]2(CO2)[C@H]1[C@@]1(C)O[C@@H]1CC=C(C)C [Compound A]
proportion of MetAP2 that contained drug in the active site over 72 hours [4]: declined similarly over the 72 hours | MetAP2 target engagement (drug bound to active site) over 72 hours [5]: target engagement declined | MetAP2 target engagement (drug bound to active site) over 72 hours ([5]; listed as compound A): target engagement decreased over the 72-hour time period | THX 1-6 concentrations over 72 hours [6]: consistently low
